Tests used:
[1] = tested on: α1-ARs (α1A, α1B, and α1D); test: Dual-luciferase CRE reporter HTS assay, agonist mode, summary over subtypes; type: cell-based, human
Experimental: (§1) HEK293 cells were plated at a density of 10^5 […] in 96-well plates in 100 μL of DMEM basic medium containing 10% fetal bovine serum, 100 U/mL penicillin, and 0.1 mg/mL streptomycin. After overnight incubation, human ADRA1-expression vectors, namely, ADRA1A, ADRA1B, and ADRA1D, were co-transfected with reporter vectors (CRE, SRE, AP1, NFAT, and NF-кB) and pGL4.74 [hRluc/TK] (included as a control for transfection efficiency) using Lipofectamine 2000 transfection reagent (Invitrogen Life Technologies, Carlsbad, CA, USA). The medium was removed after 4 h and replaced with high-glucose DMEM for 18 h. Cells were then treated with agonists (at concentrations of 0.01–20 μM) and incubated for 8 h.
(§2) Firefly and Renilla luciferase activities, which are indicated as RLUs, were determined using Dual-Glo luciferase assay kits (Promega) according to the manufacturer’s instructions. RLUs were measured using a luminometer (GloMaxTM 96-Microplate Luminometer, Promega) and are reported as the mean ± SEM of three individual experiments. For agonists, fold of induction = RLUinduced/RLUuninduced. For antagonists, % of control = 100 × RLU (agonist + antagonist)/RLU(agonist alone). […] The pKB of the antagonist was calculated by plotting log (dose ratio–1) against the antagonist dose (μM) and subjecting the data to Schild regression, where the intercept of the x-axis represents the pKB.

Amino acid sequences for entries named in this document (tags omitted).
UniProt P25100, whole entry: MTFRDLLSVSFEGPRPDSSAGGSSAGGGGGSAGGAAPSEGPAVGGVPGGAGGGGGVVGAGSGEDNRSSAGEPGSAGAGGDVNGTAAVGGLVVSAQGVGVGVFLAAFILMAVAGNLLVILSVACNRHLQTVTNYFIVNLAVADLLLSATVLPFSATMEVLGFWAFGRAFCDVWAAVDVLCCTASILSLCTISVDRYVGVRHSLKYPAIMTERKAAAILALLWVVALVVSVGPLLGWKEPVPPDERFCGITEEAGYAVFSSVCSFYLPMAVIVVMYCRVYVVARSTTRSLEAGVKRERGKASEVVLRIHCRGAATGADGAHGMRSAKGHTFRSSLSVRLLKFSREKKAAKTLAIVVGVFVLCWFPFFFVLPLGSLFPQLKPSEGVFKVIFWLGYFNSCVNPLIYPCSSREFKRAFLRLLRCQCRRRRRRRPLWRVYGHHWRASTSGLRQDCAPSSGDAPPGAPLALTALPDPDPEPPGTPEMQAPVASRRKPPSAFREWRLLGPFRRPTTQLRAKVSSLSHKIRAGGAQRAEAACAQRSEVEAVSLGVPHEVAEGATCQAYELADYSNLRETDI
UniProt P35368, whole entry: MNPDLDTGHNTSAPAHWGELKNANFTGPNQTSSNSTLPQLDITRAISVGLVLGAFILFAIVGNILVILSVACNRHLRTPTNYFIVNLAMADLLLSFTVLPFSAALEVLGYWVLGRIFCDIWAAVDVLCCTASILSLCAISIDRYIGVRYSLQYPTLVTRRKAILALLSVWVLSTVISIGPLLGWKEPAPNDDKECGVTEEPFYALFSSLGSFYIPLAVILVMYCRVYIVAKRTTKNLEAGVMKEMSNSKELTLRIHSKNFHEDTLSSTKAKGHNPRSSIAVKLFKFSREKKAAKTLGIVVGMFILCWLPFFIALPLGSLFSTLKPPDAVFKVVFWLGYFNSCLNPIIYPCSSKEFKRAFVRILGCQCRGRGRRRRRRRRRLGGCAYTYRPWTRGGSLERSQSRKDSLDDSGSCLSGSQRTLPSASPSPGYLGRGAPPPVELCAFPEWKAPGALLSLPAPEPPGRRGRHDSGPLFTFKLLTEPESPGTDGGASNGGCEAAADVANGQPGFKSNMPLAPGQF

[2] = biological target: T1, human α1D-adrenoceptor (ADRA1D) expressed in HEK293 cells (Homo sapiens, UniProt P25100); test: Dual-luciferase CRE reporter HTS assay, inhibition of PE-induced CRE activation (RIP); type: cell-based; conditions: relative inhibitory potency = (RLU PE alone − RLU PE+antagonist)/RLU PE alone
T1 construct: eGFP; host or cells: HEK293 (transient, Lipofectamine 2000)
Experimental: (§3) Furthermore, the relative inhibitory potency (RIP) could be used to improve the readability of the results. Which was determined relative to that of PE-induced group ([…]), and calculated using the following formula [15]: RIP = (RLUPE alone − RLUPE+antagonist)/RLUPE alone(1)
as §1
as §2, with “alone). All RLUs were normalized against firefly RLUs/Renilla RLUs.” for “alone).”

[3] = biological target: T2, human α1A-adrenoceptor (ADRA1A) expressed in HEK293 cells (Homo sapiens, UniProt P35348); test: as above; type: cell-based; conditions: relative inhibitory potency = (RLU PE alone − RLU PE+antagonist)/RLU PE alone
T2 construct: eGFP; host or cells: HEK293 (transient, Lipofectamine 2000)
T2 sequence (P35348 1-466): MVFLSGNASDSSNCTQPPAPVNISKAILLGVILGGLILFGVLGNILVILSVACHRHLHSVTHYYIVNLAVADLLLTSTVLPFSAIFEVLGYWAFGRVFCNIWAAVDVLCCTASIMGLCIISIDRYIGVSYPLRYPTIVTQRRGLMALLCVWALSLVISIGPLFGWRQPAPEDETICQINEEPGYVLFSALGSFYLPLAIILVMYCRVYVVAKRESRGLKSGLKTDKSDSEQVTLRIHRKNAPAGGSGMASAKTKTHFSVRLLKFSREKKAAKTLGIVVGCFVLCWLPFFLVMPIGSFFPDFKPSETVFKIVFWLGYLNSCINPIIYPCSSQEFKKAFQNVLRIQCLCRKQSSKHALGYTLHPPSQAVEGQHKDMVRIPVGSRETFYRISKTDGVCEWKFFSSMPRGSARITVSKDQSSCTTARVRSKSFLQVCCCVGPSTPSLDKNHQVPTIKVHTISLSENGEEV
Experimental: as §3, §1
as §2, with “alone). All RLUs were normalized against firefly RLUs/Renilla RLUs.” for “alone).”

[4] = biological target: T3, human α1B-adrenoceptor (ADRA1B) expressed in HEK293 cells (Homo sapiens, UniProt P35368); test: as above; type: cell-based; conditions: relative inhibitory potency = (RLU PE alone − RLU PE+antagonist)/RLU PE alone
T3 construct: eGFP; host or cells: HEK293 (transient, Lipofectamine 2000)
Experimental: as §3, §1
as §2, with “alone). All RLUs were normalized against firefly RLUs/Renilla RLUs.” for “alone).”

α1-ARs (α1A, α1B, α1D) = conditions: α1-AR subtype selectivity, cited from earlier work

Row | RIP Values (Mean ± S.E.M, n = 4) α1D [2] | RIP Values (Mean ± S.E.M, n = 4) α1A [3] | RIP Values (Mean ± S.E.M, n = 4) α1B [4] | Structure (SMILES) | subtype selectivity in the HTS assay [1] | Reported Selectivity (α1-ARs (α1A, α1B, α1D)) | Reported Selectivity (Table S1) (α1-ARs (α1A, α1B, α1D); ref 1 (supplement))
1 |  |  |  | Cc1ccc(S(=O)(=O)OCCc2ccc(COc3ccc4c(c3)OCO4)cc2)cc1 [CHK3] | did not display significant subtype selectivity |  | 
2 | 0.39 ± 0.11 | 0.91 ± 0.02 | 0.92 ± 0.01 | COc1cc2nc(N3CCN(C(=O)c4ccco4)CC3)nc(N)c2cc1OC [Prazosin, prazosin] |  | Nonselective [16] | Nonselective

Source: paper PMC6270864, “Identification of Two Novel α1-AR Agonists Using a High-Throughput Screening Model” (Molecules, 2014)
